Measurements: ChEMBL document CHEMBL3779868, “Tetrahydroprotoberberine alkaloids with dopamine and σ receptor affinity” (Bioorg Med Chem, 2016)

Chains of the proteins cited; added tags and fusions are not shown.
UniProt P35462, whole entry: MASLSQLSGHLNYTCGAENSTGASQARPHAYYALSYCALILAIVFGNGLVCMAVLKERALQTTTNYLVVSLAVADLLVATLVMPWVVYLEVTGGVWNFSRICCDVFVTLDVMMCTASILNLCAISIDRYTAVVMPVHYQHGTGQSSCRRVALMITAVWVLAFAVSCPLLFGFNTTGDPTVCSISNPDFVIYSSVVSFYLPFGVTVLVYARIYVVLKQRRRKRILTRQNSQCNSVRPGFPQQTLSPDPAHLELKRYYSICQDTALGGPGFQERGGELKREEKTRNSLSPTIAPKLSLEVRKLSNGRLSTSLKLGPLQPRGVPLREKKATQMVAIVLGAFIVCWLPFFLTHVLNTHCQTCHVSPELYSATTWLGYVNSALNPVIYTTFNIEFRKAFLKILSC
UniProt P14416, whole entry: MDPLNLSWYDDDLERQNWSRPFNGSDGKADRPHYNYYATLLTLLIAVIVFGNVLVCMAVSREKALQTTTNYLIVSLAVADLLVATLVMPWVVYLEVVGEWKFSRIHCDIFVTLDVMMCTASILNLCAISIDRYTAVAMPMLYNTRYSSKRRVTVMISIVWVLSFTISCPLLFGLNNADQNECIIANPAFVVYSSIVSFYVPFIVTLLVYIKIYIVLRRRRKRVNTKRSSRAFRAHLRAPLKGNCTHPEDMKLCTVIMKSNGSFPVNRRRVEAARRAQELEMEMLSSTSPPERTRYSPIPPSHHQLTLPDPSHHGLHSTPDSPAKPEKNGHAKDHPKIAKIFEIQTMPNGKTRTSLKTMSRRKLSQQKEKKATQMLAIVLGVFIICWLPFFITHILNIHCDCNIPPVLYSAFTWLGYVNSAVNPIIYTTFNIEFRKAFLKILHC

Tests used:
[1] = target: D(3) dopamine receptor (Homo sapiens, UniProt P35462); experiment: Displacement of [3H]N-methylspiperone from human dopamine D3 receptor by PDSP assay
[2] = target: D(2) dopamine receptor (Homo sapiens, UniProt P14416); experiment: Displacement of [3H]N-methylspiperone from human dopamine D2 receptor by PDSP assay

Ki [1]: 0.054 µM
Ki [2]: 0.054 µM
Structure (SMILES): COc1cc2c(cc1O)C1Cc3ccc(OCC4CC4)c(OC)c3CN1CC2 (configuration not stated)
